Yeast mating assay 2: variants of the scFv Ab-91

Values reported by Engelhart et al. 2022, doi:10.1038/s41597-022-01779-4 (FLAb copy).

The target is the same throughout: PDVDLGDISGINAS, from the HR2 region of SARS-CoV-2 spike.

Parent scFv Ab-91: VL joined to VH by a (GGGGS)3 linker. Changes lie in the heavy chain CDRs alone.
VL: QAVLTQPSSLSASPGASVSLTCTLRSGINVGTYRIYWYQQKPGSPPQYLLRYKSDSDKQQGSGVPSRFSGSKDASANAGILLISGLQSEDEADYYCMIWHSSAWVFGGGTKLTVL
VH: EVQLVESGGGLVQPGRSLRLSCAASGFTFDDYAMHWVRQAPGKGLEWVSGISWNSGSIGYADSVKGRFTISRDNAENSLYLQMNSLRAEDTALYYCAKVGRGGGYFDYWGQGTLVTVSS

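Phage display of a naive human antibody library on the peptide gave the parent. Variants in AAYL51 differ from the parent at up to three CDR positions; double and triple changes were sampled at random. The scFvs were displayed on barcoded MATa yeast, the peptide on MATalpha yeast. Mating (16 h, 30 °C) was followed by selection of diploids and sequencing of their barcodes. Scores were corrected for input abundance and mapped to Kd with protein pairs of known affinity run in the same pool. Each pool was mated in three replicate cultures.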

The parent's heavy chain CDRs are GFTFDDYAMH, GISWNSGSIGYADSVK, VGRGGGYFDY; each variant's own CDRs replace them letter for letter. Numbers give log10(Kd / nM), so 0 is 1 nM and 3 is 1 µM. Smaller is tighter. The mean shown is taken over the replicates in which the pair was detected. "ND" marks a missing value. The strain was present, yet no cells mated with the target were sequenced in that replicate, which points to weak or no binding. Background: pairings of library AAYL51 with three empty control strains gave a value in 21% of cases (median 4.54, 5th percentile 3.26). Values in that range, when seen in few replicates, are hard to tell from nonspecific mating. For each scFv, signals with the empty controls are counted beside the result, with their mean in brackets. In this assay the parent's reference entry averaged 1.86; its copy inside this library read 0.88.

| CDR-H1 | CDR-H2 | CDR-H3 | replicates, log10 nM | log10 Kd (nM), mean | signal with controls |
|---|---|---|---|---|---|
| GFTFDDYRMH | GISWNSGSIGYADSVV | VGRGGGYFGY | 4.91 / 5.43 / ND | 5.17 | 2/9 (4.55) |
| GLTFDDYAMH | GISWNSGSAGYADSVK | VGRGLGYFDY | ND / ND / ND | ND | 0/9 |
| GFTFFDYAMH | GISPNSMSIGYADSVK | VGRGGGYFDY | 1.55 / 1.25 / 0.88 | 1.23 | 2/9 (4.66) |
| GFTFDDYANH | GISWNSGSILYADSVK | VGRVGGYFDY | ND / ND / ND | ND | 0/9 |
| GDTSDDYAMH | GISWNKGSIGYADSVK | VGRGGGYFDY | 4.61 / 4.25 / ND | 4.43 | 3/9 (4.32) |
| GFTFDDYAMH | GISWNSGSIGYADSFL | VGRGGLYFDY | 3.48 / 3.58 / 2.90 | 3.32 | 2/9 (4.48) |
| GFTFDDYKMH | GISWNSGCIGYADSNK | VGRGGGYFDY | ND / ND / ND | ND | 2/9 (3.96) |
| GFTFADYAMH | GISWNSGSIGYADSHK | VGRGGGYFDF | 4.21 / 4.97 / 5.71 | 4.96 | 6/9 (5.12) |
| GFTNDDYAMH | GISWKSGSIGYADSVK | HGRGGGYFDY | 3.99 / ND / 3.79 | 3.89 | 3/9 (3.83) |
| GFTFDHYAMH | GISIHSGSIGYADSVK | VGRGGGYFDY | 3.28 / 3.46 / 3.48 | 3.41 | 7/9 (4.33) |
| GFHFDDYAMQ | GISWNSGSIGYADSVK | VGRGGRYFDY | ND / 3.65 / ND | 3.65 | 0/9 |
| GFTFDDYAMH | GISWISGSIGYACSVK | VGRGGGYVDY | ND / ND / ND | ND | 3/9 (4.23) |
| GFTFDDYFTH | GISWNSGSIGYADSVK | VGRGGVYFDY | 4.57 / 4.62 / ND | 4.60 | 5/9 (4.18) |
| GFTQDLYAMH | GGSWNSGSIGYADSVK | VGRGGGYFDY | ND / ND / ND | ND | 1/9 (5.19) |
| GFTFCDYAMH | GISWNSGSQGYADSVK | VIRGGGYFDY | ND / ND / ND | ND | 2/9 (4.90) |
| GLTFDDYAMH | GISWWIGSIGYADSVK | VGRGGGYFDY | ND / ND / ND | ND | 3/9 (4.16) |
| GFHFDDYAMH | GISWNSGSIGWADTVK | VGRGGGYFDY | 5.32 / ND / ND | 5.32 | 2/9 (4.81) |
| GFTFDDYCMH | GISWNSGSIGYADSVK | VGRKGGYNDY | 4.21 / 3.79 / ND | 4.00 | 3/9 (4.76) |
| QFTKDDYAMH | GISWNSGSIGYIDSVK | VGRGGGYFDY | ND / ND / ND | ND | 0/9 |
| GFTFDDYAMH | GISWNSGSIGYQDSVK | VWRGGGDFDY | ND / ND / ND | ND | 1/9 (3.51) |
| GFTFDDYAMH | GVSGNSGSIGYADSVK | VGRGGGYFDA | ND / ND / ND | ND | 0/9 |
| GFSFDDYAMH | TISWNSGSIGYADSVN | VGRGGGYFDY | ND / ND / ND | ND | 0/9 |
| GPTFDDGAMH | GISWNSGSIGYADSVK | VGRGGGYFDY | 5.16 / ND / ND | 5.16 | 0/9 |
| KFTFDDYAMH | GISWNSGSIGYDDSVK | VGRGGGYFDY | ND / 5.35 / ND | 5.35 | 1/9 (2.77) |
| GFTYDRYAMG | GISWNSGSIGYADSVK | VGRGGGYFDY | 5.51 / ND / ND | 5.51 | 3/9 (3.98) |
| GFTFNDYAMH | GISWNSGSIGYADSVK | VGRGYGYFDS | 4.14 / ND / 5.21 | 4.68 | 0/9 |
| GKTFDDYAMH | GISWNSGSIYYADSVK | VGRGGGYFDT | ND / ND / ND | ND | 1/9 (3.76) |
| GFTFDGYAMK | GIRWNSGSIGYADSVK | VGRGGGYFDY | 4.56 / ND / ND | 4.56 | 2/9 (5.52) |
| GFTFDDYAMH | GISWNSYSIGYADSVK | VGRGGHYFDY | ND / ND / ND | ND | 3/9 (4.38) |
| GFTFDDYAEH | GISWNSESICYADSVK | VGRGGGYFDY | ND / ND / ND | ND | 1/9 (4.48) |
| GFTADDYAMH | GISWNSGSIGYAASVK | VGRRGGYFDY | ND / 5.53 / 5.23 | 5.38 | 5/9 (4.39) |
| GFTFDDYAMH | GISWNSGAIGYADSVK | VGRGGGYFDW | 3.05 / 3.07 / 3.17 | 3.10 | 2/9 (5.28) |
| GFTFDDYAMH | SISWNSGSIQYADSVK | VGRPGGYFDY | ND / ND / ND | ND | 0/9 |
| GFTFDDYAMH | GISWCSGSIGYADSVK | VGRGGGYFIV | 4.67 / 3.82 / ND | 4.25 | 3/9 (4.99) |
| GFEFDDYAMH | GISWNSGSIGYADSVV | VGRGGGPFDY | ND / ND / ND | ND | 0/9 |
| GFTFDDYAMH | GISWNSGSIGYPDSVK | VFRGGGWFDY | ND / ND / ND | ND | 0/9 |
| GFTFDDYAGH | MISWNSGSIGYADSVK | VGSGGGYFDY | ND / ND / ND | ND | 1/9 (4.36) |
| GFTFDDYAMH | DISWNSGSIGYADSVK | NGRGGGYFDC | ND / ND / ND | ND | 2/9 (4.42) |
| GFHFLDYAMH | GISWNSGSIGNADSVK | VGRGGGYFDY | 4.86 / 5.03 / 4.71 | 4.87 | 4/9 (5.03) |
| GFTFDDDAMH | GISWNSGSIGYQDSVK | VGRGGNYFDY | ND / ND / ND | ND | 2/9 (4.06) |
| GFTFDDYARH | GISWNSGSIGYADSVK | TQRGGGYFDY | ND / 4.34 / ND | 4.34 | 2/9 (3.33) |
| GFTFDDYAMH | GISWNRGSIGYADSVA | VGAGGGYFDY | 5.27 / ND / 3.63 | 4.45 | 3/9 (4.16) |
| GFTFDDYAMH | GISWNSGSIGYAVSVK | VGRFGGYFDS | 4.69 / ND / ND | 4.69 | 4/9 (4.54) |
| GFTFDDYAMT | GISWNSGSICYADSVA | VGRGGGYFDY | ND / ND / ND | ND | 2/9 (4.21) |
| GFTFDGYAMR | GISWNSGSIGYADSVK | VGRGGGYFYY | 4.50 / ND / ND | 4.50 | 1/9 (3.99) |
| GFTFDDYAMH | DIFWNSGSIGYADSVK | VGRGGGYFDY | ND / ND / ND | ND | 0/9 |
| MFLFDDYAMH | GISWNSGSIVYADSVK | VGRGGGYFDY | ND / ND / ND | ND | 0/9 |
| GFPFDDYAMH | GISWNWPSIGYADSVK | VGRGGGYFDY | 4.40 / ND / ND | 4.40 | 5/9 (4.16) |
| GFTRDDYAMH | GNSWNSGSIGYADSVK | VLRGGGYFDY | ND / ND / 3.13 | 3.13 | 0/9 |

The 6 strongest on average among those seen in every replicate, once more:

CDR-H1,CDR-H2,CDR-H3,"replicates, log10 nM","log10 Kd (nM), mean",signal with controls
GFTFFDYAMH,GISPNSMSIGYADSVK,VGRGGGYFDY,1.55 / 1.25 / 0.88,1.23,2/9 (4.66)
GFTFDDYAMH,GISWNSGAIGYADSVK,VGRGGGYFDW,3.05 / 3.07 / 3.17,3.10,2/9 (5.28)
GFTFDDYAMH,GISWNSGSIGYADSFL,VGRGGLYFDY,3.48 / 3.58 / 2.90,3.32,2/9 (4.48)
GFTFDHYAMH,GISIHSGSIGYADSVK,VGRGGGYFDY,3.28 / 3.46 / 3.48,3.41,7/9 (4.33)
GFHFLDYAMH,GISWNSGSIGNADSVK,VGRGGGYFDY,4.86 / 5.03 / 4.71,4.87,4/9 (5.03)
GFTFADYAMH,GISWNSGSIGYADSHK,VGRGGGYFDF,4.21 / 4.97 / 5.71,4.96,6/9 (5.12)